2 compounds from patent US4689339A, “4-dihydroinden-2-yl-, 4-tetrahydronaphth-2-yl-, and 4-dihydrobenzofuran-2-ylimidazoles, useful to block α2 -adrenergic receptors” (Farmos Yhtyma oy, priority 1984, dated 1987) can be followed below.

Chains of the proteins cited; added tags and fusions are not shown.
UniProt P22909, whole entry: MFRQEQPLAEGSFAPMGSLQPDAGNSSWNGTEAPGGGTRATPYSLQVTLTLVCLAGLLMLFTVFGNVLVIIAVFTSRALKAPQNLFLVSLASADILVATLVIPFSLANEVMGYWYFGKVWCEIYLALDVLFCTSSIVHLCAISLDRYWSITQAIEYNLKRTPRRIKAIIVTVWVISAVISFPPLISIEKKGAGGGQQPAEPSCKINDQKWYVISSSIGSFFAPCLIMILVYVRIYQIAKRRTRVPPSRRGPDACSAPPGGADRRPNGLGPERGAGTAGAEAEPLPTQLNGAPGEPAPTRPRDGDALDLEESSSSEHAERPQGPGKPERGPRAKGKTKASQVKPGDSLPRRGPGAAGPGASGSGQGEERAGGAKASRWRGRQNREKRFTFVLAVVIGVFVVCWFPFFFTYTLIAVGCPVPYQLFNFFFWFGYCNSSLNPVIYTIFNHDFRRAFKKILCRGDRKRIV

Structures are written as SMILES.

The target of this experiment is T1, α2-receptors of the central nervous system (Rattus norvegicus, UniProt P22909).
T1 construct: In anaesthetized rat, a standard dose of detomidine was administered intravenously; from tissue; host or cells: whole anaesthetized rat, in vivo (central nervous system)
Nature of the experiment: α2-antagonism in vivo, reversal of detomidine-induced mydriasis in anaesthetized rat. The conditions noted are these: iv, read-out: ED50, 50 percent reversal of detomidine-induced mydriasis. The protocol: The central α2 -blocking effect of the studied substances under in vivo conditions was studied using two methods. First, it is known that in the rat α2 -agonists induce dilatation of the pupil (mydriasis) which effect is transmitted via α2 -receptors of the central nervous system. In anaesthetized rat, a standard dose of detomidine was administered intravenously. Thereafter increasing doses of the studied antagonist were injected intravenously and the reversal of detomidine-induced mydriasis was followed. The ED50 value of the antagonist, i.e. the dose producing a 50 percent reversal, was determined.

Consider `CCC1(c2cnc[nH]2)Cc2ccccc2C1` [Compound XV], for which the median effective dose (ED50) came to 6 µg/kg.
For the compound `COc1cc2nc(N3CCN(C(=O)c4ccco4)CC3)nc(N)c2cc1OC` [Prazosin], the ED50 was over 1000 µg/kg.
